Patent publication US6849712B1, “Peptides with β1 integrin subunit dependent cell adhesion modulating activity” (Regents of the University of Minnesota, priority 1998, dated 2005)

Sequences of proteins named here, by UniProt entry; tags and fusion partners are left off. Residues count along the entry.
UniProt P08648, 895-1049 limits assumed: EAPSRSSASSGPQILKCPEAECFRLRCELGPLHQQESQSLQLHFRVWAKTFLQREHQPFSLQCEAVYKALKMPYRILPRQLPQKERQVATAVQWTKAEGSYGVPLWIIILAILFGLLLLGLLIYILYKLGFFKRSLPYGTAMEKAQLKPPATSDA
UniProt P08648, 42-894 limits assumed: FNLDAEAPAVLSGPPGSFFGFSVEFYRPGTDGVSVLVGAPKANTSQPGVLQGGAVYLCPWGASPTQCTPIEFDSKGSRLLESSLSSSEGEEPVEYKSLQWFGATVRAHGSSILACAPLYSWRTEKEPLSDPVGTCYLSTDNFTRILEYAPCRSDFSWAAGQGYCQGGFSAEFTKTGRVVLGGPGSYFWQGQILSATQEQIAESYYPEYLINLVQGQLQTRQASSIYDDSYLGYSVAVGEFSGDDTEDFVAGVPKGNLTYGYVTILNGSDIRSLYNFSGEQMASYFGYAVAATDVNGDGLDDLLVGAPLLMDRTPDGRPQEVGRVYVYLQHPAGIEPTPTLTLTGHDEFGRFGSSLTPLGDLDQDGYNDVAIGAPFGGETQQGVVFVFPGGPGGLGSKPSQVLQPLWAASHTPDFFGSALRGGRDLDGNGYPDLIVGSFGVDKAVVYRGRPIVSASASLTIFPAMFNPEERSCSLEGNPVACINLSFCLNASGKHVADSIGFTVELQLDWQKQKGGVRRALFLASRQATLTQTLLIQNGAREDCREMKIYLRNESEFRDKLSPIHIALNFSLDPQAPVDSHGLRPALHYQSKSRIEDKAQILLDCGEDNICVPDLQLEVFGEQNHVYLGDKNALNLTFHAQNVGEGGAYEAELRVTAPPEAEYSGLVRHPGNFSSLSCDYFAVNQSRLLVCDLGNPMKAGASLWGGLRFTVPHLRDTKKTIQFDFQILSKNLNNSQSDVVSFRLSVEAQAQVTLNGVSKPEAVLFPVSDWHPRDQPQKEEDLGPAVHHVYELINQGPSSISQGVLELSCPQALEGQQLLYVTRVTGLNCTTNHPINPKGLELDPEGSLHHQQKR
UniProt P13612, 34-1032: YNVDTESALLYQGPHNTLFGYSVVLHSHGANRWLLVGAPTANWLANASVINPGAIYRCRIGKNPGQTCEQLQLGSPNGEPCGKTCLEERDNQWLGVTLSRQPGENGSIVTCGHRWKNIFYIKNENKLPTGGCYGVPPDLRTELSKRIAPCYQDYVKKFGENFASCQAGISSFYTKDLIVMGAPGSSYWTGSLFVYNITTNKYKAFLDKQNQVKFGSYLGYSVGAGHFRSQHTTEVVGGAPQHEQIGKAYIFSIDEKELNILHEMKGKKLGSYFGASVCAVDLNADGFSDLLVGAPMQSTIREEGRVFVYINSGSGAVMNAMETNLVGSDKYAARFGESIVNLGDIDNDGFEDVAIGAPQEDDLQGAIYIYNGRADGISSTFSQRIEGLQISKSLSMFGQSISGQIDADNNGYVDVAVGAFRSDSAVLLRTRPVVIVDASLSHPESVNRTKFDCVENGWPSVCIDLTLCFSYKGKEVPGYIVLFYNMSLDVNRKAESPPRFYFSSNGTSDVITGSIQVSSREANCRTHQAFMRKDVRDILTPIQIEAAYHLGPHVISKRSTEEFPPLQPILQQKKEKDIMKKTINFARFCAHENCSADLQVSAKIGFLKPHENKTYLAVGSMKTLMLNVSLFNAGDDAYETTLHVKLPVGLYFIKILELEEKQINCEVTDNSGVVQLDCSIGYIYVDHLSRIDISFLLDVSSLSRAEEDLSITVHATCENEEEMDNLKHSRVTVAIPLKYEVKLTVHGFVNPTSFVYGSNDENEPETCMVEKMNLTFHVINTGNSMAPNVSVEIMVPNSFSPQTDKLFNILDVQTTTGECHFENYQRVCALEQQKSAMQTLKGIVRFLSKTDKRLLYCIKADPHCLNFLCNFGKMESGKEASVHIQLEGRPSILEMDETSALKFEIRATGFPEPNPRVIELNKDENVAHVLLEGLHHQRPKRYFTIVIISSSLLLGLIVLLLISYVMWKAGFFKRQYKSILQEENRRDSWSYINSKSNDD

How the values were obtained:
α5β1 integrin = biological target: T1, α5β1 integrin (Homo sapiens, UniProt P05556+P08648); test: Inhibition of α5β1 integrin dependent Mn+2 stimulated adhesion of K562 cells to fibronectin (FN); format: cell-based
T1 construct: erythroleukemic cell line K562, which expresses α5β1 but not α4β1 integrin; endogenous in cells; host or cells: K562 cells
Procedure: The cell adhesion assay was carried out as described above. […] Each data point represents the mean of triplicate determinations and the error bars represent the standard deviation of the mean. The solid black line represents adhesion to the negative control substrate, BSA.

α4β1 integrin = α4β1 integrin (Homo sapiens, UniProt P05556+P13612); test: Inhibition of α4β1 dependent adhesion of 8A2 stimulated Ramos cells to IIICS-GST; format: cell-based; parameters: endogenous in cells; host or cells: Ramos cells; settings: Ramos cells activated with mAb 8A2, preincubated with peptide, result in words
Description: IIICS-GST is recombinantly produced fusion protein which contains a fragment from the type III CS region (“IIICS”) of plasma fibronectin fused to glutathione-S-transferase (“GST”). The fibronectin fragment corresponds to fibronectin amino acid residues 1961 to 2039 (sequence numbering for fibronectin as designated in U.S. Pat. No. 4,839,464) and includes the […] (SEQ ID NO:46) amino acid sequence (“CS1”; fibronectin residues 1961-1985). […] In the assay, a 96-well plate was coated with the substrate IIICS-GST. Ramos cells stimulated with the β1 activating monoclonal antibody 8A2 (“Ab 8A2”) were preincubated with one of the peptides to be evaluated for their ability to adhere to IIICS-GST. […]
A 96-well plate was coated in triplicate with […] of IIICS-GST diluted to […] in PBS containing 1 mM CaCl2, MgCl2 (“PBS/cations”) and incubated overnight at 37° C. […] Cells were counted and resuspended at 200,000 cells/ml. […]
The blocking solution was removed from the 96-well plate and the cell/peptide mixture is added at 100 μl/well (10,000 cells/well) and incubated for 30 minutes at 37° C. An aliquot of standard cells/peptide (100 μl) was placed at 37° C. for quantitating adhesion. […] The plate fluorescence was read at excitation 485 and emission 530. […] The experimental fluorescence readings were extrapolated from the standard curve to obtain percent adhesion.

SMILES: CC[C@H](C)[C@H](NC(=O)[C@@H](N)CCCNC(=N)N)C(=O)N[C@@H](Cc1ccc(O)cc1)C(=O)O [RIY, Arg-Ile-Tyr]
- inhibition of K562 adhesion to FN at the maximal concentration tested (α5β1 integrin; 0.84 mM peptide, K562 cells stimulated with 1 mM MnCl2): completely inhibited
- IC50 (α5β1 integrin; K562 cells stimulated with 1 mM MnCl2, adhesion to FN, read-out: half-maximal inhibitory concentration): ~200 µM
- inhibition of adhesion of 8A2 stimulated Ramos cells to IIICS-GST (α4β1 integrin): comparable on an equimolar basis to that of Y-tagged FN C/H V
